The numbers were not newly measured in patent US20220192984A1, “PHARMACEUTICAL COMPOSITIONS COMPRISING OTIC THERAPEUTIC AGENTS AND RELATED METHODS” (Frequency Therapeutics, Inc., priority 2018, published 2022), which cites them from elsewhere.

Sequences of proteins named here, by UniProt entry; tags and fusion partners are left off. Residues count along the entry.
UniProt P27338, whole entry: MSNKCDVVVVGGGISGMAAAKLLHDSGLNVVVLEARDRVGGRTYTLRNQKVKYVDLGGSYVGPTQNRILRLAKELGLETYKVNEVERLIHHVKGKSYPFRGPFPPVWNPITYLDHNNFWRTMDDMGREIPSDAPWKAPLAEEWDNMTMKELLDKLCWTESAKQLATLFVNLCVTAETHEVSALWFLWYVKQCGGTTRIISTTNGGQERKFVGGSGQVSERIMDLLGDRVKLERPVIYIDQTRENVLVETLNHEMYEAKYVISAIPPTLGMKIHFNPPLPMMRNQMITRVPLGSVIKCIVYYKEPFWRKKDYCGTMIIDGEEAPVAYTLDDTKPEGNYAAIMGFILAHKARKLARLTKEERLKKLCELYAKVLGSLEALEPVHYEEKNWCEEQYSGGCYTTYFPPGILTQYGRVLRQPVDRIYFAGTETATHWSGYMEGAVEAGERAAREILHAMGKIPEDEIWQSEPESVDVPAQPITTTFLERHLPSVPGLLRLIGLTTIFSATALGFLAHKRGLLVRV
UniProt Q15910, whole entry, species assumed: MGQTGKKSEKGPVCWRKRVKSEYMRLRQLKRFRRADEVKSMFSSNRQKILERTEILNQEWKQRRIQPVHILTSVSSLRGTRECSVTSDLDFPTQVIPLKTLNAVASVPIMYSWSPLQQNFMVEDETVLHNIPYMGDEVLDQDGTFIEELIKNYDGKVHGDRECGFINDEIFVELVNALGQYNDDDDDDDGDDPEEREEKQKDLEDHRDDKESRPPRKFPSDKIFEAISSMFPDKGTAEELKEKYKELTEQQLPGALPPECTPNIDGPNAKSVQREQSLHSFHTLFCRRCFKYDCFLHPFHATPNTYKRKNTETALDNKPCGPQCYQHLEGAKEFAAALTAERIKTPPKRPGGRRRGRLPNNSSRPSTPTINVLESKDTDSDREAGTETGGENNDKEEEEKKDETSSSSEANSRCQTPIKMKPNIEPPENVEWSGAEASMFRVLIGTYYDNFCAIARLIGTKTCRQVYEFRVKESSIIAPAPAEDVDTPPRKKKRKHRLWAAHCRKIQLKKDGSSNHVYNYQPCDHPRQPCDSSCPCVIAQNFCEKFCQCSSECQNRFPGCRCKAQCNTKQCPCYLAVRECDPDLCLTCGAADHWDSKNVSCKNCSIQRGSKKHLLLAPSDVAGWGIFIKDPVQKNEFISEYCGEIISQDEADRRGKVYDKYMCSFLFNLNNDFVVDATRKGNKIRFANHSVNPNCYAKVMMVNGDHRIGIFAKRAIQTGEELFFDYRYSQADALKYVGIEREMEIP
UniProt P21860, 20-1342: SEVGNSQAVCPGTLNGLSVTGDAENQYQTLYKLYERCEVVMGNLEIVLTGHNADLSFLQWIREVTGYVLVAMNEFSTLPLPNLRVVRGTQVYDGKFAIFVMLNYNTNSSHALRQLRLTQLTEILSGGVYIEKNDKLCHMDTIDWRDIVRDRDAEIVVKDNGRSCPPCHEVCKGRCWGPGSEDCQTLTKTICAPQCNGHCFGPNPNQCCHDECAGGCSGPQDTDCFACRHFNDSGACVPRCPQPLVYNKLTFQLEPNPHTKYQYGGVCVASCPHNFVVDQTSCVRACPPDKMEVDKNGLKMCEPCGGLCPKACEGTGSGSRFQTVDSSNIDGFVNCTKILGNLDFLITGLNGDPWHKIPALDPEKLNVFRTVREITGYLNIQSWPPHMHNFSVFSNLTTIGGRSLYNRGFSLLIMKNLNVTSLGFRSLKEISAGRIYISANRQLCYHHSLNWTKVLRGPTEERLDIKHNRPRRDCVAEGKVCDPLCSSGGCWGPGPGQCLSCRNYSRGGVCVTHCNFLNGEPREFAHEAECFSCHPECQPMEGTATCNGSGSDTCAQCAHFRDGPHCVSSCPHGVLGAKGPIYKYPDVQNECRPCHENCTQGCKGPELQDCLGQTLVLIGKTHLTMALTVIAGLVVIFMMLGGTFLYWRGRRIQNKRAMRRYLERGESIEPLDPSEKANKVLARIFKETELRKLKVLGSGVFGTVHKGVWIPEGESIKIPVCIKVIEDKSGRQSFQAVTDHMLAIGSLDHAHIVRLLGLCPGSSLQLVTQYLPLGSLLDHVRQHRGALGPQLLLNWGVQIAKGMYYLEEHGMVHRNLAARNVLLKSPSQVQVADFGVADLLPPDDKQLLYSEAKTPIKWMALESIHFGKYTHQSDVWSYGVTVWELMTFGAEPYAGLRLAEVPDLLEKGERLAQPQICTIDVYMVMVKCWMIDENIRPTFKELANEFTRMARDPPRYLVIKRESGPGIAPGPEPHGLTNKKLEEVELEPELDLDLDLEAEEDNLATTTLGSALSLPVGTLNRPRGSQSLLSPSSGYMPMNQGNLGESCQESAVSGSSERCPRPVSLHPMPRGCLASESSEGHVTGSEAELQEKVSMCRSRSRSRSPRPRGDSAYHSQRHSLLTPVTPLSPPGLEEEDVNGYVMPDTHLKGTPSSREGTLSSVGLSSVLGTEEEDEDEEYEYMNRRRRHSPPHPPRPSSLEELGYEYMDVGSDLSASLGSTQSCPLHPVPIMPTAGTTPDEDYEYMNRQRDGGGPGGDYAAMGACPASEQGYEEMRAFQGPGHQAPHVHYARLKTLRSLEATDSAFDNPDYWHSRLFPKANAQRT

Each structure is given as a SMILES string.

Series [1] deals with MAO B (Homo sapiens, UniProt P27338). The conditions noted are these: Table 18, MAO B (second value or marked B); read-out: Select MAOs A and B; cited from earlier work.
In series [2] the target is T1, EZH2 (Homo sapiens, UniProt Q15910). The conditions noted are these: Table 19, EZH2; read-out: pKi or IC50 (converted); cited from earlier work.
Series [3] concerns the target ErbB3/HER3 (Homo sapiens, UniProt P21860). The conditions noted are these: read-out: HER 3 pKi or IC50 (converted); cited from earlier work.
Series [4] addresses T1, EZH2. The settings on record: cited from earlier work.

Turning to `N[C@H]1CC[C@H](N[C@@H]2C[C@H]2c2ccccc2)CC1` (relative stereo) [ORY-1001], the IC50 in series [1] is > 100000 nM.
For the molecule `CCN(c1cc(C#CCN2CCOCC2)cc(C(=O)NCc2c(C)cc(C)[nH]c2=O)c1C)[C@H]1CC[C@H](N(C)CCOC)CC1` [EPZ-011989], the IC50 in series [2] was < 3 nM.
In the case of `CCCc1cc(C)[nH]c(=O)c1CNC(=O)c1cc(-c2ccnc(N3CCN(C)CC3)c2)cc2c1cnn2C(C)C` [GSK343], the IC50 in series [2] was 1.2 nM.
Take `CNC(=O)CN1CCC(Oc2cc3c(Nc4cccc(Cl)c4F)ncnc3cc2OC)CC1` [Sapitinib/AZD8931/]: the IC50 in series [3] was 4 nM.
With `Cc1cc(C)c(CNC(=O)c2cc(Cl)c3c(c2C)O[C@@](C)([C@H]2CC[C@H](N(C)C)CC2)O3)c(=O)[nH]1` [Valemetostat], the “Lit Cell Poten” value in series [4] is 25 to 250 nM.
